By UniProt entry, the sequences of proteins in these tests, tags left out. Residues count along the entry.
UniProt P00742, 41-179 limits assumed: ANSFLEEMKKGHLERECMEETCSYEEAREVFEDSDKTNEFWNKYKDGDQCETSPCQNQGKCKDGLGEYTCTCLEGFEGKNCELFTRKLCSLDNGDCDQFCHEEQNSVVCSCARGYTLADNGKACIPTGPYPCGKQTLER
UniProt P00742, 235-488 limits assumed: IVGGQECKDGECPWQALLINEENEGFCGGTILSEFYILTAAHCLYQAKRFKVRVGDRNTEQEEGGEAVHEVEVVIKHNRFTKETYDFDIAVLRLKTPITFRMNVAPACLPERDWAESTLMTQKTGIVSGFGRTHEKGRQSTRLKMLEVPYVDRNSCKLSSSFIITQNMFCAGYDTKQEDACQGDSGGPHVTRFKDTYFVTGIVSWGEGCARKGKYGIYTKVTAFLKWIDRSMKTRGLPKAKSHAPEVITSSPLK

In ChEMBL document CHEMBL1135152, “Design, synthesis, and SAR of monobenzamidines and aminoisoquinolines as factor Xa inhibitors” (Bioorg Med Chem Lett, 2002):

Biological target: Coagulation factor X (Homo sapiens, UniProt P00742)
Test: Tested in vitro for the inhibitory activity against Coagulation factor Xa

IC50: 31 nM
Compound: CS(=O)(=O)Nc1ccc(C(=O)Nc2ccc(-c3ccccc3S(N)(=O)=O)cc2)c(Oc2cccc(C(=N)N)c2)c1
